These results are taken from patent US20140086916A1.

The target in test [1] is FcγRIIA H (UniProt P12318). Nature of the test: FcγR affinity assay 'as described in Example 7', n = 3; printed as Affinity (nM) ± STDEV.
Test [2] has as its target FcγRIIA H (UniProt P12318). Nature of the test: fold change of the Table 12 affinities (reference row).
Test [3] has as its target FcγRIIIa-V158 (Pichia pastoris produced) (UniProt P08637). Nature of the test: FcγR affinity assay 'as described in Example 7', n = 3; printed as Affinity (nM) ± STDEV; footnote: values > ~5000 nM mean a poor binder.
Test [4] shares this target. In words: fold change of the Table 12 affinities.
In test [5] the target is FcγRIIIa-F158 (Pichia pastoris produced) (UniProt P08637). In words: FcγR affinity assay 'as described in Example 7', n = 3; printed as Affinity (nM) ± STDEV; footnote: values > ~5000 nM mean a poor binder.
Test [6] has as its target FcγRIIb (Pichia pastoris produced) (UniProt P31994). In words: FcγR affinity assay 'as described in Example 7', n = 3; printed as Affinity (nM) ± STDEV.
Test [7] has the same target. In words: fold change of the Table 12 affinities.
Test [8] concerns the target FcγRIIIa-F158 (Pichia pastoris produced) (UniProt P08637). Nature of the test: fold change of the Table 12 affinities.

As to “Anti-TNF IgG1 GS5.0 (wild type Fc) (antibody; other documents disagree on this pair)”, the Kd (usually the free concentration of one partner at which half of the binding sites on the other are occupied at equilibrium, for simple one-to-one binding) with FcγRIIA H [1] was found to be 1.05 µM. In addition, in the test with FcγRIIA H [2], the fold change in affinity vs Anti-TNF IgG1 GS5.0 was found to be 1 fold.

“Anti-TNF alpha QM (F243A/V264A/S267E/L328F quadruple mutein) (antibody)” had a Kd in test [3] of 5.19 µM. This substance returned a fold change in affinity vs Anti-TNF IgG1 GS5.0 in test [4] of 98 fold.

Take “Anti-TNF alpha QM (F243A/V264A/S267E/L328F quadruple mutein) (antibody; other documents disagree on this pair)”: the values for the Kd in test [5] and in test [6] were 8.07 µM and 0.033 µM, respectively. For the same substance, the fold change in affinity vs Anti-TNF IgG1 GS5.0 is 21 fold in test [7] and 17 fold in test [8].
